# Target: ghrelin receptor (HEK-GHSR1 stable cells) (Homo sapiens, UniProt Q92847)
# By UniProt entry, the sequences of proteins in these tests, tags left out.
# UniProt Q92847, whole entry: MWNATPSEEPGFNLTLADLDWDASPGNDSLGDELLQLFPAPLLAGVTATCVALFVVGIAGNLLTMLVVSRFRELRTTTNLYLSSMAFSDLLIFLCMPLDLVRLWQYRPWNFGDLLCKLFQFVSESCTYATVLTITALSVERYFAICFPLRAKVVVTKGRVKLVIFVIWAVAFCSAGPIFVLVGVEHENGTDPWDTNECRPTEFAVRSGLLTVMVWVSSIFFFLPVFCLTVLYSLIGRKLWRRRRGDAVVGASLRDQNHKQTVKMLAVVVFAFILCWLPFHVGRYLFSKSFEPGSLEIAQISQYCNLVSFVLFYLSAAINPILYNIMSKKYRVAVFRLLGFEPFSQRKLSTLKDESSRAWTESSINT
# Test: Ghrelin receptor inverse agonist assay (HTRF IP-one), Method B4
# Settings: read-out: IC50 (Inverse Agonist Activity), inverse agonist at the ghrelin receptor
row,Structure (SMILES),IC50 [nM]
1,CC(C)[C@@H]1NCCOc2cccc(F)c2/C=C/CNC(=O)[C@@H]([C@H](C)c2ccccc2)NC(=O)[C@H](C(C)O)N(C)C1=O (stereo partly shown),100 to 500
2,CC[C@@H]1NCCOc2cccc3c2CC(CC3)CNC(=O)[C@@H](Cc2ccc(Cl)cc2)NC(=O)[C@H](C(C)O)N(C)C1=O (stereo partly shown),50 to 100
3,"CC(C)[C@@H]1NCCOc2ccccc2C2CCC(C2)NC(=O)[C@@H](Cc2ccccc2)NC(=O)[C@H](C(C)O)N(C)C1=O (single isomer, unassigned) [1848b]",100 to 500
4,CC[C@@H]1CCc2ccc(O)cc2OCCN[C@@H](C(C)C)C(=O)N(C)[C@@H](C(C)O)C(=O)N[C@H](Cc2c[nH]c3ccccc23)C(=O)N1 (stereo partly shown),50 to 100
5,"CCC(C)[C@@H]1NCCOc2cccc3c2CC(CC3)CNC(=O)[C@@H](Cc2ccccc2)NC(=O)[C@H](C(C)O)N(C)C1=O (single isomer, unassigned) [1825]",50 to 100
6,CC[C@@H]1NC[C@@H](C)Oc2cc(F)ccc2CC[C@@H](C)NC(=O)[C@@H](Cc2c[nH]c3ccccc23)NC(=O)[C@H](C(C)O)N(C)C1=O (stereo partly shown),100 to 500
7,"CC(C)[C@@H]1NCCOc2cccc3c2CC(CC3)CNC(=O)[C@@H](Cc2ccc(C(F)(F)F)cc2)NC(=O)[C@H](C(C)O)N(C)C1=O (single isomer, unassigned) [1860a]",50 to 100
8,"CC(C)[C@@H]1NCCOc2cccc3c2CC(CC3)CNC(=O)[C@@H](Cc2ccc(Cl)cc2)NC(=O)[C@H](C(C)O)N(C)C1=O (single isomer, unassigned) [1858b]",100 to 500
9,CC[C@@H]1CCc2ccc(O)cc2OCCN[C@@H](C(C)C)C(=O)N(C)[C@@H](C(C)O)C(=O)N[C@H](Cc2ccccc2)C(=O)N1 (stereo partly shown),50 to 100

# Target: human ghrelin receptor (GRLN, growth hormone secretagogue receptor, hGHS-R1a) (Homo sapiens, UniProt Q92847)
# Test: Competitive radioligand binding assay (ghrelin receptor), Method B1
# Settings: Ghrelin receptor binding activity
Structure (SMILES),IC50 [nM],Ki [nM]
CC(C)[C@@H]1NCCOc2cccc(F)c2/C=C/CNC(=O)[C@@H]([C@H](C)c2ccccc2)NC(=O)[C@H](C(C)O)N(C)C1=O (stereo partly shown),10 to 100,
CCC(C)[C@@H]1NCCOc2ccccc2CC[C@H](C)NC(=O)[C@@H](Cc2ccc(Cl)cc2)NC(=O)[C@H](C(C)O)N(C)C1=O (stereo partly shown),100 to 500,
CC[C@@H]1NCCOc2cccc3c2CC(CC3)CNC(=O)[C@@H](Cc2ccc(Cl)cc2)NC(=O)[C@H](C(C)O)N(C)C1=O (stereo partly shown),10 to 100,
"CC(C)[C@@H]1NCCOc2ccccc2C2CCC(C2)NC(=O)[C@@H](Cc2ccccc2)NC(=O)[C@H](C(C)O)N(C)C1=O (single isomer, unassigned) [1848b]",10 to 100,
"CCC(C)[C@@H]1NCCNc2ccccc2CCCNC(=O)[C@@H](Cc2ccccc2)NC(=O)[C@H](C(C)O)N(C)C1=O (single isomer, unassigned)",,10 to 100
CC[C@@H]1CCc2ccc(O)cc2OCCN[C@@H](C(C)C)C(=O)N(C)[C@@H](C(C)O)C(=O)N[C@H](Cc2c[nH]c3ccccc23)C(=O)N1 (stereo partly shown),1 to 10,
"CCC(C)[C@@H]1NCCOc2cccc3c2CC(CC3)CNC(=O)[C@@H](Cc2ccccc2)NC(=O)[C@H](C(C)O)N(C)C1=O (single isomer, unassigned) [1825]",1 to 10,
CC[C@@H]1NC[C@@H](C)Oc2cc(F)ccc2CC[C@@H](C)NC(=O)[C@@H](Cc2c[nH]c3ccccc23)NC(=O)[C@H](C(C)O)N(C)C1=O (stereo partly shown),> 500,
CC[C@@H]1CCc2c(C#N)cccc2OCCN[C@@H](CC)C(=O)N(C)[C@@H](C(C)O)C(=O)N[C@H](Cc2c[nH]c3ccccc23)C(=O)N1 (stereo partly shown),> 500,
"CC(O)[C@H]1C(=O)N[C@H](Cc2c[nH]c3ccccc23)C(=O)NC2CCC(C2)c2ccccc2OCCN[C@@H](C2(C)CC2)C(=O)N1C (single isomer, unassigned)",10 to 100,
"CC(C)[C@@H]1NCCOc2cccc3c2CC(CC3)CNC(=O)[C@@H](Cc2ccc(C(F)(F)F)cc2)NC(=O)[C@H](C(C)O)N(C)C1=O (single isomer, unassigned) [1860a]",1 to 10,
"CC(C)[C@@H]1NCCOc2cccc3c2CC(CC3)CNC(=O)[C@@H](Cc2ccc(Cl)cc2)NC(=O)[C@H](C(C)O)N(C)C1=O (single isomer, unassigned) [1858b]",10 to 100,
CC[C@@H]1CCc2ccc(O)cc2OCCN[C@@H](C(C)C)C(=O)N(C)[C@@H](C(C)O)C(=O)N[C@H](Cc2ccccc2)C(=O)N1 (stereo partly shown),10 to 100,
CC[C@@H]1NCCOc2ccccc2C2CCC(C2)NC(=O)[C@@H](Cc2ccccc2)NC(=O)[C@H](C(C)O)N(C)C1=O (stereo partly shown),10 to 100,
CC[C@@H]1NC[C@@H](C)Oc2cccc3c2CC(CC3)CNC(=O)[C@@H](Cc2ccc(F)cc2)NC(=O)[C@H](C(C)O)N(C)C1=O (stereo partly shown),10 to 100,
CC[C@@H]1CCc2c(C#N)cccc2OCCN[C@@H](CC)C(=O)N(C)[C@@H](C(C)O)C(=O)N[C@H](Cc2ccc(F)cc2)C(=O)N1 (stereo partly shown),> 500,
CCC(C)[C@@H]1NCCNc2ccccc2CCCNC(=O)[C@@H](Cc2ccc(Cl)cc2)NC(=O)[C@H](C(C)O)N(C)C1=O (stereo partly shown),10 to 100,
"CCC(C)[C@@H]1NCCCc2ccccc2[C@H]2C[C@@H]2CNC(=O)[C@@H](Cc2ccccc2)NC(=O)[C@H](C(C)O)N(C)C1=O (single isomer, unassigned) [1335]",> 500,100 to 500
"CC[C@@H]1NCCOc2ccccc2C2CCC(C2)NC(=O)[C@@H](Cc2c[nH]c3ccccc23)NC(=O)[C@H](C(C)O)N(C)C1=O (single isomer, unassigned) [1900a]",10 to 100,
"CCC(C)[C@@H]1NCCCc2ccccc2[C@H]2C[C@@H]2CNC(=O)[C@@H](Cc2ccccc2)NC(=O)[C@H](C(C)O)N(C)C1=O (single isomer, unassigned) [1559]",100 to 500,100 to 500
"CCC1CCc2cccnc2OCCNC(C2(C)CC2)C(=O)N(C)C(C(C)O)C(=O)NC(Cc2c[nH]c3ccccc23)C(=O)N1 (single isomer, unassigned) [1922b]",10 to 100,
CC(O)[C@H]1C(=O)N[C@H](Cc2c[nH]c3ccccc23)C(=O)N[C@@H](C)CCc2ccccc2OCCN[C@@H](C2CCCCC2)C(=O)N1C (stereo partly shown),100 to 500,
"CC(C)[C@@H]1NCCOc2ccccc2C2CCC(C2)NC(=O)[C@@H](Cc2ccc(F)cc2)NC(=O)[C@H](C(C)O)N(C)C1=O (single isomer, unassigned) [1903b]",100 to 500,
"CC(C)[C@@H]1NCCOc2ccccc2C2CCC(C2)NC(=O)[C@@H](Cc2ccc(F)cc2)NC(=O)[C@H](C(C)O)N(C)C1=O (single isomer, unassigned) [1903c]",100 to 500,
"CC[C@@H]1CCc2cccnc2OCCN[C@@H](C2(C)CC2)C(=O)N(C)[C@@H](C(C)O)C(=O)N[C@H](Cc2ccccc2)C(=O)N1 (single isomer, unassigned)",100 to 500,
"CC(C)[C@@H]1NCCOc2cccc3c2CC(CC3)CNC(=O)[C@@H](Cc2ccc(C(F)(F)F)cc2)NC(=O)[C@H](C(C)O)N(C)C1=O (single isomer, unassigned) [1860b]",10 to 100,
"CCC(C)[C@@H]1NCCOc2cccc3c2CC(CC3)CNC(=O)[C@@H](Cc2cccc(F)c2)NC(=O)[C@H](C(C)O)N(C)C1=O (single isomer, unassigned) [1792b]",100 to 500,

Structure (SMILES),IC50 [nM],Ki [nM]
CC[C@@H]1NCCOc2ccccc2C2CCC(C2)NC(=O)[C@@H](Cc2ccc(F)cc2)NC(=O)[C@H](C(C)O)N(C)C1=O (stereo partly shown),100 to 500,
CCC(C)[C@@H]1NC[C@@H](C)Oc2ccccc2[C@H]2C[C@@H]2CNC(=O)[C@@H](Cc2ccccc2)NC(=O)[C@H](C(C)O)N(C)C1=O (stereo partly shown),10 to 100,10 to 100
CCC(C)[C@@H]1NCCOc2ccccc2/C=C\CNC(=O)[C@@H](Cc2ccc(F)cc2)NC(=O)[C@H](C(C)O)N(C)C1=O (stereo partly shown),,100 to 500
CC(O)[C@H]1C(=O)N[C@H](Cc2ccccc2)C(=O)NC2CCC(C2)c2ccccc2OCCN[C@@H](C2(C)CC2)C(=O)N1C (stereo partly shown),100 to 500,
"CCC(C)[C@@H]1NCCOc2cccc3c2CC(CC3)CNC(=O)[C@@H](Cc2ccccc2)NC(=O)[C@H](C(C)O)N(C)C1=O (single isomer, unassigned) [1826]",100 to 500,
CC(C)C[C@@H]1NCCOc2ccccc2/C=C/CNC(=O)[C@@H](Cc2ccccc2)NC(=O)[C@H](C(C)O)N(C)C1=O (stereo partly shown),100 to 500,10 to 100
"CC[C@@H]1NCCOc2cccc3c2CC(CC3)CNC(=O)[C@@H](Cc2ccc(C(F)(F)F)cc2)NC(=O)[C@H](C(C)O)N(C)C1=O (single isomer, unassigned) [1861b]",100 to 500,
CC(O)[C@H]1C(=O)N[C@H](Cc2ccccc2)C(=O)NC/C=C/c2ccccc2O[C@@H](C)CN[C@@H](C2CC2)C(=O)N1C (stereo partly shown),100 to 500,100 to 500
CC(O)[C@H]1C(=O)N[C@H](Cc2ccccc2)C(=O)NCCCc2cccc3c2OC(CN[C@@H](C2CC2)C(=O)N1C)C3 (stereo partly shown),> 500,> 500
"CC[C@@H]1NCCOc2cccc3c2CC(CC3)CNC(=O)[C@@H](Cc2ccc(C(F)(F)F)cc2)NC(=O)[C@H](C(C)O)N(C)C1=O (single isomer, unassigned) [1861a]",10 to 100,
CC[C@@H]1CCc2ccc(F)cc2O[C@H](C)CN[C@@H](CC)C(=O)N(C)[C@@H](C(C)O)C(=O)N[C@H](Cc2c[nH]c3ccccc23)C(=O)N1 (stereo partly shown),> 500,
CC(O)[C@H]1C(=O)N[C@H](Cc2ccc(Cl)cc2)C(=O)N[C@@H](C)CCc2ccccc2OCCN[C@@H](C2CC2)C(=O)N1C (stereo partly shown),100 to 500,
CC(O)[C@H]1C(=O)N[C@H](Cc2ccc(Cl)cc2)C(=O)N[C@@H](C)CCc2ccccc2OCCN[C@@H](C2CCCCC2)C(=O)N1C (stereo partly shown),100 to 500,
"CC(C)[C@@H]1NCCOc2ccccc2C2CCC(C2)NC(=O)[C@@H](Cc2c[nH]c3ccccc23)NC(=O)[C@H](C(C)O)N(C)C1=O (single isomer, unassigned)",10 to 100,
CC(O)[C@H]1C(=O)N[C@H](Cc2ccccc2)C(=O)NC/C=C/c2ccccc2O[C@H](C)CN[C@@H](C2CC2)C(=O)N1C (stereo partly shown),100 to 500,10 to 100
CC(C)C[C@@H]1NCCOc2cccc3c2CC(CC3)CNC(=O)[C@@H](Cc2ccccc2)NC(=O)[C@H](C(C)O)N(C)C1=O (stereo partly shown),10 to 100,
CCC(C)[C@@H]1NCCOc2ccccc2/C=C(\F)CNC(=O)[C@@H](Cc2ccccc2)NC(=O)[C@H](C(C)O)N(C)C1=O (stereo partly shown),> 500,100 to 500
"CCC(C)[C@@H]1NCCOc2cccc3c2CC(CC3)CNC(=O)[C@@H](Cc2ccc(O)cc2)NC(=O)[C@H](C(C)O)N(C)C1=O (single isomer, unassigned) [1790b]",100 to 500,
"CCC(C)[C@@H]1NC[C@H](C)Oc2ccccc2[C@H]2C[C@@H]2CNC(=O)[C@@H](Cc2ccccc2)NC(=O)[C@H](C(C)O)N(C)C1=O (single isomer, unassigned) [1560]",> 500,100 to 500
CC[C@@H]1CCc2ccc(F)cc2OCCN[C@@H](CC)C(=O)N(C)[C@@H](C(C)O)C(=O)N[C@H](Cc2ccc(C(F)(F)F)cc2)C(=O)N1 (stereo partly shown),10 to 100,
"CCC(C)[C@@H]1NC[C@H](C)Oc2ccccc2[C@H]2C[C@@H]2CNC(=O)[C@@H](Cc2ccccc2)NC(=O)[C@H](C(C)O)N(C)C1=O (single isomer, unassigned) [1337]",10 to 100,10 to 100
C[C@H]1C(=O)N[C@H](Cc2ccc(F)cc2)C(=O)NCCCc2cccc3c2OC(CN[C@@H](C2CC2)C(=O)N1C)C3 (stereo partly shown),100 to 500,100 to 500
CC(C)[C@@H]1NCCOc2cccc(F)c2/C=C/CNC(=O)[C@@H]([C@@H](C)c2c[nH]c3ccccc23)NC(=O)[C@H](C(C)O)N(C)C1=O (stereo partly shown),100 to 500,
"CC[C@@H]1NCCOc2ccccc2C2CCC(C2)NC(=O)[C@@H](Cc2c[nH]c3ccccc23)NC(=O)[C@H](C(C)O)N(C)C1=O (single isomer, unassigned) [1900b]",> 500,
CC[C@@H]1CCc2c(cccc2C(F)(F)F)OCCN[C@@H](CC)C(=O)N(C)[C@@H](C(C)O)C(=O)N[C@H](Cc2ccc(F)cc2)C(=O)N1 (stereo partly shown),> 500,
"CC(C)[C@@H]1NCCOc2ccccc2C2CCC(C2)NC(=O)[C@@H](Cc2ccccc2)NC(=O)[C@H](C(C)O)N(C)C1=O (single isomer, unassigned) [1849]",10 to 100,

# Reference: US20110105389A1 (priority 2009, published 2011)
